Source: US8268813B2, “Zilpaterol enantiomer compositions and methods of making and using such compositions” (Intervet International B.V., priority 2006, dated 2012)
Read-outs that look alike come from different tables or passages of the source.

Amino acid sequences for entries named in this document (tags omitted).
UniProt Q8K4Z4, whole entry: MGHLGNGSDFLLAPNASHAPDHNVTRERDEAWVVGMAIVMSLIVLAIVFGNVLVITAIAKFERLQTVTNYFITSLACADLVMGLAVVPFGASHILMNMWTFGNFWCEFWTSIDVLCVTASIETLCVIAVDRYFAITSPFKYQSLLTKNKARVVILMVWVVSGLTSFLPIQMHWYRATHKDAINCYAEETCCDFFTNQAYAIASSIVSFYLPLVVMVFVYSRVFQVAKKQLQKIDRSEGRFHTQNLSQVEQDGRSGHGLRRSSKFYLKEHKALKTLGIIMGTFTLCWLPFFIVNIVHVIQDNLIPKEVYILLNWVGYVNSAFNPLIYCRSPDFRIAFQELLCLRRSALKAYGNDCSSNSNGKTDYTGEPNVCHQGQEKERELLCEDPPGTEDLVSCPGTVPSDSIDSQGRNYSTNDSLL

Molecular target: β2 adrenergic receptors in guinea pig trachea (Cavia porcellus, UniProt Q8K4Z4)
Details: concentration 3.0E−07 M

With `CC(C)(C)NCC(O)c1ccc(O)c(CO)c1` (centres unmarked) [Salbutamol, salbutamol] the “Percent of the Control Response to Salbutamol at 3.0E−07 M, Mean” value (Table 6) was 101% and the “Percent of the Control Response to Salbutamol at 3.0E−07 M, Mean” value (Table 7) was 104%.
